Results published in patent publication US20100311714A1, “1H-IMIDAZO[4,5-c]QUINOLINONE COMPOUNDS” (priority 2009, published 2010).

By UniProt entry, the sequences of proteins in these tests, tags left out. Chains listed by the source or under a name are the forms on record and can include a tag or linker. Residues count along the entry.
UniProt P42338, whole entry, looked up: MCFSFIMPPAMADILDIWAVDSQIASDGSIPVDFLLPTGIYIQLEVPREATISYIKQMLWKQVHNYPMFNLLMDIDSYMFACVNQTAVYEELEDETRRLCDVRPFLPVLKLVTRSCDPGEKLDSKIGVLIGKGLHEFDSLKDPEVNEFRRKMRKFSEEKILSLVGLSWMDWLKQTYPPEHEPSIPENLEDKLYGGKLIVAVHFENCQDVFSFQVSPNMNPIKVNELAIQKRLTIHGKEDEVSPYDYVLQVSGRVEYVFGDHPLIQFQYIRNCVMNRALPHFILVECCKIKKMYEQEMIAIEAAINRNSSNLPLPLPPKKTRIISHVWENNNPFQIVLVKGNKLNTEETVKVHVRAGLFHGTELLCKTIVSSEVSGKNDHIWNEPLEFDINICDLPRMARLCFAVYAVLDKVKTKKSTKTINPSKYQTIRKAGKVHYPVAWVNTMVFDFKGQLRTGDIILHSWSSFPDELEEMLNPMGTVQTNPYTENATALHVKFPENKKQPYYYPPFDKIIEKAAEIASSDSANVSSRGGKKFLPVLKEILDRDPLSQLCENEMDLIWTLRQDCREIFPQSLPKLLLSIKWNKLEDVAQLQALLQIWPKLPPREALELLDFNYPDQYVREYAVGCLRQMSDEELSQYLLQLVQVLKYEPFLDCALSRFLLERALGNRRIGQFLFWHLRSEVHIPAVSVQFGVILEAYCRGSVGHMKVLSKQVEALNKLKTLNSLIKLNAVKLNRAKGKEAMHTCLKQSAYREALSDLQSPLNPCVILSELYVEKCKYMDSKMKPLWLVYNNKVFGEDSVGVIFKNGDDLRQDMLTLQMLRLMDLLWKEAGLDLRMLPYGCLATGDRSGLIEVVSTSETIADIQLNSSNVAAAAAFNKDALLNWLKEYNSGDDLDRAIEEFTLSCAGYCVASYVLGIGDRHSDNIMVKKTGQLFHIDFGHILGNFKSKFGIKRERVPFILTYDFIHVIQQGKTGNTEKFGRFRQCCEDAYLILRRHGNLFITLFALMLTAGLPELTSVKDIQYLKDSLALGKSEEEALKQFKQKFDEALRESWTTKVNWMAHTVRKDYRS
UniProt P42338, 2-1070 with tags or gaps limits assumed: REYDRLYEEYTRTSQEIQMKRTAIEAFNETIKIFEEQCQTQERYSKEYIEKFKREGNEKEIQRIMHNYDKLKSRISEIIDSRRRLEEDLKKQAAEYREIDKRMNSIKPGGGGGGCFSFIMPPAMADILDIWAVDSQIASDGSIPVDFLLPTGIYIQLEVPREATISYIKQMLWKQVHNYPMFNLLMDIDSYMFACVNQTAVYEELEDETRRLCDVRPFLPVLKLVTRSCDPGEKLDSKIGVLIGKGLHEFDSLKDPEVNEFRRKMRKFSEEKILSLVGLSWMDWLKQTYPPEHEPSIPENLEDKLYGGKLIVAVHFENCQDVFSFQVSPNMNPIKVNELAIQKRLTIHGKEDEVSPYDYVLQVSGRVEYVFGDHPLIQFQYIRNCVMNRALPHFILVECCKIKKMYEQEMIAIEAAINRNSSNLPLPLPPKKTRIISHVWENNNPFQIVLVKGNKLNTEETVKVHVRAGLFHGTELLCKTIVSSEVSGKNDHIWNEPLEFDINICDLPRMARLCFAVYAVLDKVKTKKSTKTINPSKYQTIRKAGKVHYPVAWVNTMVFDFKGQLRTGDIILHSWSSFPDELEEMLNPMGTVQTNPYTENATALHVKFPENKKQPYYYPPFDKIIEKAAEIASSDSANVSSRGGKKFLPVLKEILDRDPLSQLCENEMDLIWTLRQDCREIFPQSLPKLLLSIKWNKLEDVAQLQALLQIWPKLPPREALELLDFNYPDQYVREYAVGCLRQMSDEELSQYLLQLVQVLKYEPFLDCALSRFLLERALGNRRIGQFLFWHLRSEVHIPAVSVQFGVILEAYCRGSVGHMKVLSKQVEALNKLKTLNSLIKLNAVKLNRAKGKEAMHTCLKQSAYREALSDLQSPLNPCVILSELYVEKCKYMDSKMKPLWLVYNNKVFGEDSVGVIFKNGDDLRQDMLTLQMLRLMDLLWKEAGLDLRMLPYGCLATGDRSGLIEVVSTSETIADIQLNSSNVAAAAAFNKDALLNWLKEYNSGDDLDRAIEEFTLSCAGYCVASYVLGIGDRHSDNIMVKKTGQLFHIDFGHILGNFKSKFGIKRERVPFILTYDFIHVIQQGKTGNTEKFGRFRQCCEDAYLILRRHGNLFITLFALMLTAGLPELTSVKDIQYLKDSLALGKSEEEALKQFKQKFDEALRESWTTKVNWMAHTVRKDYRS
UniProt P42345, 1360-2549 limits assumed: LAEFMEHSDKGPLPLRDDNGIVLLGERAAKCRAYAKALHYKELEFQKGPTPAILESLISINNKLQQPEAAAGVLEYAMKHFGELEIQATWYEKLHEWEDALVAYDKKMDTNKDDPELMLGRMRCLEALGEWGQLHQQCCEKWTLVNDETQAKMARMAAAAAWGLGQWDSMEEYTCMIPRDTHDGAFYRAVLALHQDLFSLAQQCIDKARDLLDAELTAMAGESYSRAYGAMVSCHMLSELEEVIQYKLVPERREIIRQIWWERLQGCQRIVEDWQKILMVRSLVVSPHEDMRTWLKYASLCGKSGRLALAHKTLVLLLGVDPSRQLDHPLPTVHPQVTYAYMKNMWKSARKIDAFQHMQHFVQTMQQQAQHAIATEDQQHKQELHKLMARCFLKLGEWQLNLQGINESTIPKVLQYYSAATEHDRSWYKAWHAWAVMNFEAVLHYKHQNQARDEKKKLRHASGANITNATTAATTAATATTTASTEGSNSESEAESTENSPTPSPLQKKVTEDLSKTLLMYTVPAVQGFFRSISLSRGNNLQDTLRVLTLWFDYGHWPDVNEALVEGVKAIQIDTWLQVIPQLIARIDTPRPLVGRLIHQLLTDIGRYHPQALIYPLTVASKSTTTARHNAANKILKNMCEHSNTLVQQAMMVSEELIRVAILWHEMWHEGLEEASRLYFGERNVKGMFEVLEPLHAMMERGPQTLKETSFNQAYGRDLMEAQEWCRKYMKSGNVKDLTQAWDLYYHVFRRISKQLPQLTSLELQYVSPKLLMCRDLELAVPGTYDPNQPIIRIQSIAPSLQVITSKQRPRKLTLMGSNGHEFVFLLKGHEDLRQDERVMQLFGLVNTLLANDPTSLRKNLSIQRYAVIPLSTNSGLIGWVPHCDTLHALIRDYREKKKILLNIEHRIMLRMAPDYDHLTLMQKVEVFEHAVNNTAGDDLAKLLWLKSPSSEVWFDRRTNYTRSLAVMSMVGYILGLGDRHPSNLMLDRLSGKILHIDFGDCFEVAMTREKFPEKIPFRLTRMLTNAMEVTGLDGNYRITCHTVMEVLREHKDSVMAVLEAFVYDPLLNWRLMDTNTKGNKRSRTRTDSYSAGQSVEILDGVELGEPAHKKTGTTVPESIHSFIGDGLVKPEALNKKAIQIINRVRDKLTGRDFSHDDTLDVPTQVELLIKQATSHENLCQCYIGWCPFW
UniProt P42336, whole entry, looked up: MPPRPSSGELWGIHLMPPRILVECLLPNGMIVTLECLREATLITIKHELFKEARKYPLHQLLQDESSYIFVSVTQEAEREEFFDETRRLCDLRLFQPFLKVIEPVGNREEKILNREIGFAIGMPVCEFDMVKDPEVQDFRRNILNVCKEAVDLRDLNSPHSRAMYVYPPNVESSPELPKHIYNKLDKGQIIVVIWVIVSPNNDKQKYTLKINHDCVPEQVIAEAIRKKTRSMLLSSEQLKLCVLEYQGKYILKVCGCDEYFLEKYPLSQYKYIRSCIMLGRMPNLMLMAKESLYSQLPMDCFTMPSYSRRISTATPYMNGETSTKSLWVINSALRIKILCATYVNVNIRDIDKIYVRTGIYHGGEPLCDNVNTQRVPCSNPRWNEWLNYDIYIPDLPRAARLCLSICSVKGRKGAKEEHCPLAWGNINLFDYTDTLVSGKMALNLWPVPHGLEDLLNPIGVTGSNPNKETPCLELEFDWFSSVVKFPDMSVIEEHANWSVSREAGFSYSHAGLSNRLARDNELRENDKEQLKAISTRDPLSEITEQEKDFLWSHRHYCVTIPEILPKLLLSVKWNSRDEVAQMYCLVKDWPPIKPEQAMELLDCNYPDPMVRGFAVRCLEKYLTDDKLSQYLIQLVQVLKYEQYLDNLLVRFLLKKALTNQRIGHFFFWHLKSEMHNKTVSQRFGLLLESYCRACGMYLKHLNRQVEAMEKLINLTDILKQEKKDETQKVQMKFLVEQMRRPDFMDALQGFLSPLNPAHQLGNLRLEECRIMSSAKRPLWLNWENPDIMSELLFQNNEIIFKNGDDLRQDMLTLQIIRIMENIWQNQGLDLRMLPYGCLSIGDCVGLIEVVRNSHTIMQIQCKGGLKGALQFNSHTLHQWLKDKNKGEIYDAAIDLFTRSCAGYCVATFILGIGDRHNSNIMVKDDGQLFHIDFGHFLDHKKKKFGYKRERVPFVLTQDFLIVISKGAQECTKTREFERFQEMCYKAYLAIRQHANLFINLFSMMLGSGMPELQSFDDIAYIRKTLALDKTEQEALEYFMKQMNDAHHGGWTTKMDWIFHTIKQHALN
UniProt P42336, 21-1068 with tags or gaps limits assumed: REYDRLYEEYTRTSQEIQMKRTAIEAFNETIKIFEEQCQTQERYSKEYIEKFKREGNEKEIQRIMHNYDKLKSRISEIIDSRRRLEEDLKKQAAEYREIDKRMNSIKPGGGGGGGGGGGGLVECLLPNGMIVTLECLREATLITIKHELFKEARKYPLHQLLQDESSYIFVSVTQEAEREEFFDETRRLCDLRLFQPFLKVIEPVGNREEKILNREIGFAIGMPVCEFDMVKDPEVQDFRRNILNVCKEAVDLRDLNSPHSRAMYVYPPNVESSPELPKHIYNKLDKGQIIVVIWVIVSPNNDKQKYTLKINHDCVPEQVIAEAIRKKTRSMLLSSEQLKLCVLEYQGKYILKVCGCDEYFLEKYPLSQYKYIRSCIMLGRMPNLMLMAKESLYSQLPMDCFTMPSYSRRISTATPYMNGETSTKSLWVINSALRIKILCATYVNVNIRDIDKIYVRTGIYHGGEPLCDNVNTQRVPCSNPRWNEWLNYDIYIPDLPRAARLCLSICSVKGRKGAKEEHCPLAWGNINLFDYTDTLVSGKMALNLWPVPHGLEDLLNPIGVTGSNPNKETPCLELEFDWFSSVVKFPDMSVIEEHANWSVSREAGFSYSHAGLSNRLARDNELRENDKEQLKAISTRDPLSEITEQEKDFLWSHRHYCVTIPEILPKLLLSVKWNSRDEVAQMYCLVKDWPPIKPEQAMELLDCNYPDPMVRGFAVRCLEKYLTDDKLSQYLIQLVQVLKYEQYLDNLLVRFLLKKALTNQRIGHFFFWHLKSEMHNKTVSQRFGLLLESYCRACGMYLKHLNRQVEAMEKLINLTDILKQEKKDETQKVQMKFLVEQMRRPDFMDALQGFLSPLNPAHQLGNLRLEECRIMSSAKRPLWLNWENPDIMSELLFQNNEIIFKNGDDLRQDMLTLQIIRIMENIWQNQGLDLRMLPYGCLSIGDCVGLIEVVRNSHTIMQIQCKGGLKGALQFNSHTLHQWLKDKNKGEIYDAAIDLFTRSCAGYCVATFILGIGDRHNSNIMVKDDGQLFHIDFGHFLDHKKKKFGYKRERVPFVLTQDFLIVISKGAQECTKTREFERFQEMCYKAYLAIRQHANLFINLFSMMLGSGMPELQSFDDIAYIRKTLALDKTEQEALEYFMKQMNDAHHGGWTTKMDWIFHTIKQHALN

Assays:
PI3K delta = PI3K delta (Homo sapiens, UniProt O00329); test: PI3K delta kinase assay (Kinase-Glo luminescence); details: read-out: EPK_PI3Kdelta/IC50
Protocol: (§1) In a more preferred assay, the kinase reaction is performed in a final volume of 10 μL per well of a low volume non binding CORNING, 384 well black plate (Cat. No. #3676). The final concentrations of ATP and phosphatidyl inositol (PI) in the assay are 1 μM and 10 μg/mL respectively. The reaction is started by the addition of ATP.
(§2) The components of the assay are added per well as follows: […]
PI3K delta is purified in three chromatographic steps: immobilized metal affinity chromatography on a Ni Sepharose resin (GE Healthcare), gel filtration utilizing a Superdex 200 26/60 column (GE Healthcare), and finally a anion exchange step on a Q-HP column (GE Healthcare). […] Fractions are analyzed by Coomassie stained SDS-PAGE gels, and fractions containing the target protein are pooled and applied to a prepared GFC column. Fractions from the GFC column are analyzed by Coomassie stained SDS-PAGE gels, and fractions containing the target protein are pooled. […] The column is washed with low salt buffer until a stable A280 baseline absorbance is achieved, and eluted using a 20 column volume gradient from 0 mM NaCl to 500 mM NaCl. Again, fractions from the Q-HP column are analyzed by Coomassie stained SDS-PAGE gels, and fractions containing the target protein are pooled. […]

PI3K beta = PI3K beta (Homo sapiens, UniProt P42338); test: PI3K beta kinase assay (Kinase-Glo luminescence); details: read-out: EPK_PI3Kbeta/IC50
Protocol: as §1, §2
(§3) IC50 is determined by a four parameter curve fitting routine that comes along with “excel fit”. […] Alternatively, IC50 values are calculated using idbsXLfit model 204, which is a 4 parameter logistic model.

[1] = target: PKB Ser473 phosphorylation in Rat1-myr-HA-p110 delta cells (UniProt O00329); test: Reverse protein array, PKB Ser473 phosphorylation in Rat1-myr-HA-p110 delta cells; details: read-out: p-PKB/IC50_delta, 30 minutes compound incubation
Protocol: (§4) No. 15140-114) and 10 μg/ml Puromycine (Sigma, cat. No. P9620).
(§5) The Rat1-myr-HA-p110 alpha, beta and delta cells were trypsinized and counted with a CASY TT cell counter (Schärfe System GmbH, Reutlingen Germany). The cells were diluted in fresh DMEM complete medium and 3×10^4 cells/150 μl/well seeded in 96-well TPP-tissue culture plates (TPP, cat. No. 92096). The plates were incubated at 37° C. and 5% CO2 under humidified condition for at least 20 h. Compound of formula I working solutions were prepared freshly as serial 8 step dilutions (vol/vol) in DMSO on the day of the experiment. The working solutions were further diluted 1/500 in cell culture medium to get final compound concentrations of 10, 3.333, 1.111, 0.370, 0.123, 0.041, 0.014, 0.005 μM. […]
(§6) After the sample spotting and blocking procedure, the ZeptoMARK® chips were transferred to the ZeptoCARRIER (Zeptosens, cat. No. 1100), whose six flow cells individually address the six arrays on a chip, and washed twice with 200 μl CAB1 CeLyA assay buffer (Zeptosens, cat. No. 9032). […] The fluorescence of the target-bound Fab fragments is read out on the ZeptoReader (Zeptosens, Witterswil, Switzerland) using a laser (excitation wavelength 635 nm) and a CCD camera. The fluorescence signal was assessed with exposure times of 1, 3, 5 and 10 seconds, depending on the intensity of the signal. […]

mTOR = mTOR (Homo sapiens, UniProt P42345); test: Biochemical assay for m-TOR by TR-FRET; details: read-out: EPK_mTOR/IC50
Protocol: Biochemical Assay for m-TOR by TR-FRET.
Assay components are purchased from Invitrogen Corporation (Carlsbad/Calif., USA): GFP-4EBP1 (Cat. No. PV4759), Tb3+-α-p4EBP1 [pThr46] Antibody (Cat. No. PV4757), proprietary TR-FRET dilution buffer (Cat. No. PV3574), mTOR protein (Cat. No. PV4753).
50 nL of compound dilutions (final concentration of 10, 3.0, 1.0, 0.3, 0.1, 0.03, 0.01 and 0.003 μM) are dispensed onto black 384-well low volume non-binding polystyrene (Cat. No. NBS#3676, Corning, Lowell/Mass., USA). Then 5 μL of ATP (8 μM final concentration) and GFP-4EBP1 (400 nM final concentration) with 5 μL mTOR proteins (0.5 nM final concentration) are incubated at rt. The standard reaction buffer for the TR-FRET mTOR assay contained 50 mM HEPES pH 7.5, 10 mM MnCl2, 50 mM NaCl, 1 mM EGTA, 1 mM DTT. Reactions were stopped with 10 μL of a mixture of EDTA containing the Tb3+-α-p4EBP1[pT46] detection Ab (0.5 nM) in TR-FRET dilution buffer (proprietary to IVG). Plates are read 15 mins later in a Synergy2 reader using an integration time of 0.2 seconds and a delay of 0.1 seconds. Control for the 100% inhibition of the kinase reaction is performed by replacing the mTOR kinase by the standard reaction buffer. The control for the 0% inhibition is given by the solvent vehicle of the compounds (90% DMSO in H2O). […]

PI3K alfa = PI3K alfa (Homo sapiens, UniProt P42336); test: PI3K alpha kinase assay (Kinase-Glo luminescence); details: read-out: EPK_PI3Kalfa/IC50
Protocol: as §1, §2, §3

[2] = target: PKB Ser473 phosphorylation in Rat1-myr-HA-p110 alpha cells (UniProt P42336); test: Reverse protein array, PKB Ser473 phosphorylation in Rat1-myr-HA-p110 alpha cells; details: read-out: p-PKB/IC50_alpha, 30 minutes compound incubation
Protocol: as §4, §5, §6

[3] = target: PKB Ser473 phosphorylation in Rat1-myr-HA-p110 beta cells (UniProt P42338); test: Reverse protein array, PKB Ser473 phosphorylation in Rat1-myr-HA-p110 beta cells; details: read-out: p-PKB/IC50_beta, 30 minutes compound incubation
Protocol: as §4, §5, §6

In the case of `CCOc1ccc(-c2ccc3ncc4c(c3c2)n(-c2ccc(N3CCC3)nc2C)c(=O)n4C)cn1`, the IC50 (PI3K delta) is reported as 0.772 µM, the IC50 (PI3K beta) is reported as > 9.1 µM and the IC50 [1] is reported as 0.139 µM. The IC50 (mTOR) was 0.423 µM, the IC50 (PI3K alfa) was 0.385 µM and the IC50 [2] was 0.0285 µM. It also gave an IC50 [3] of 0.0984 µM.
